The text below walks through data of PubChem BioAssay AID1259344 (Tox21, 2017).

The list shows a part of the results, in another mix than the full data. Some of these compounds have results that are not shown, active ones among them. Results filed as inconclusive are left out. Activity calls are given as the source filed them. Calls come from the whole dose curve; as a rule, active = well fitted activation curve with a large enough effect; inconclusive = small, poorly fitted or top-dose-only effect; inactive = flat fitted curve, though single readings scatter.
% is set by controls: 0 for no effect and ±100 for the full control effect.

The test can be described thus: qHTS assay to identify small molecule phospholipidosis (PLD) inducers. As to conditions: HepG2 phospholipidosis, LipidTOX Red imaging, 24 h; at 38.3 µM (top of the series). The source says: National Center for Advancing Translational Sciences [NCATS]
Drug-induced Phospholipidosis (PLD) caused by cationic amphiphilic drugs is characterized by the appearance of unicentric or multicentric-lamellar bodies when viewed under electron microscope. Electron microscopy is the gold standard method for PLD detection, however, this method is time-consuming and labor intensive, making it unsuitable for evaluating a large set of compounds. A cell-based phospholipidosis assay has been developed using the LipidTox reagent in HepG2 cells and miniaturized into a 1536-well plate format. Drug induced phospholipid accumulation is stained with the LipidTox dyes in red color which then is determined using an automated high content screening system. […]
For fixations, 4 uL of 8% paraformaldehyde fixative solution containing 10 ug/mL Hoechst 33342 in Dulbecco's phosphate-buffered saline (DPBS) is added using a Kalypsys washer/dispenser (Kalypsys, San Diego, CA, USA). […] The fluorescence intensities (595 nm excitation, 615 nm emission for LipidTOX; 352 nm excitation, 461 nm emission for Hoechst 33342) are measured using an ImageXpress Micro Widefield High Content Screening System (Molecular Devices, Sunnyvale, CA, USA) with a 20x Plan Fluor objective. Images are acquired for one site in each well and analyzed with the MetaXpress software (Molecular Devices) using the Transfluor module. […]
(In general: In qHTS, concentration-response curves come from the screen itself.)
Turning to `CN1CCCC(OC(=O)C(O)(c2ccccc2)c2ccccc2)C1` (stereo unspecified), the PLD induction was inactive: 3.12%.
